Target: P2X purinoceptor 7 (Homo sapiens, UniProt Q99572)
Assay: Antagonist activity at P2X7 receptor in human THP1 cells assessed as inhibition of BzATP-induced ethidium uptake
Format: functional, cell-based, THP-1

The chains behind the UniProt entries cited, without tags or fusion partners. Where a name states a change or a piece, a line headed by the entry shows the natural chain unless it says otherwise.
UniProt Q99572: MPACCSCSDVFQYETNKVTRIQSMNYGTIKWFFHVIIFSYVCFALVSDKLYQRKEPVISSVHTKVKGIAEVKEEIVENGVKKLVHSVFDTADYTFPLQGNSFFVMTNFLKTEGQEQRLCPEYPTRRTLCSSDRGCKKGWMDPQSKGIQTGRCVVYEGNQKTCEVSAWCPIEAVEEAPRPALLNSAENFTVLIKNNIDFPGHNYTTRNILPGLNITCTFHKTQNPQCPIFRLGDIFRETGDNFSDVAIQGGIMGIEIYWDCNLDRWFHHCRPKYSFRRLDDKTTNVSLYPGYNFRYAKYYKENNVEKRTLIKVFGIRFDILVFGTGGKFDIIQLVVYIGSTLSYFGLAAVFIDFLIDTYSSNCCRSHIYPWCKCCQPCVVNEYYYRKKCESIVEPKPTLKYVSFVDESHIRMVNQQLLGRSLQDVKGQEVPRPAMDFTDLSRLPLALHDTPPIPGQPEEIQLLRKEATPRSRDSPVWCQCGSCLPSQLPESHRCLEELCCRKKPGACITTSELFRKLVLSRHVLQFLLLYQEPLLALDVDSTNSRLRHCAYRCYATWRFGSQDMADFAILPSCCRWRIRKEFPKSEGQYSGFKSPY

IC50: 2 nM
SMILES: O=C(Cc1ccc(Cl)c(C(F)(F)F)c1)Nc1cccc2c(=O)n(CCO)ccc12
